Target: T1, HIF-2α (Homo sapiens, UniProt Q99814)
T1 construct: endogenous in cells; host or cells: 786-O cells stably expressing HRE-luciferase
Test: HRE-luciferase activity in stable HRE/luciferase-expressing 786-O cells
Format: cell-based
Details: 786-0
Method: HRE, hypoxia-responsive element.
FIG. 5. […] PBS was used in CTL and compound C76 was used as a positive control. **, P<0.01, ****, P<0.0001. Student t test.
FIG. 7. Ethacridine is a potent HIF-α inhibitor. To validate the inhibitory effect of Ethacridine, stable 786-O cells expressing HRE-Luciferase was treated with Ethacridine at the indicated concentration for 24 h. Luciferase activity was then measured and normalized to control vehicle (DMSO) group. Ethacridine at 5 uM could inhibited approximately 80% HRE activity, i.e., HIF activity. Data are expressed as mean±SD. […]

Amino acid sequences for entries named in this document (tags omitted). A change or cut given only in a name is not applied to a line headed by its entry.
UniProt Q99814: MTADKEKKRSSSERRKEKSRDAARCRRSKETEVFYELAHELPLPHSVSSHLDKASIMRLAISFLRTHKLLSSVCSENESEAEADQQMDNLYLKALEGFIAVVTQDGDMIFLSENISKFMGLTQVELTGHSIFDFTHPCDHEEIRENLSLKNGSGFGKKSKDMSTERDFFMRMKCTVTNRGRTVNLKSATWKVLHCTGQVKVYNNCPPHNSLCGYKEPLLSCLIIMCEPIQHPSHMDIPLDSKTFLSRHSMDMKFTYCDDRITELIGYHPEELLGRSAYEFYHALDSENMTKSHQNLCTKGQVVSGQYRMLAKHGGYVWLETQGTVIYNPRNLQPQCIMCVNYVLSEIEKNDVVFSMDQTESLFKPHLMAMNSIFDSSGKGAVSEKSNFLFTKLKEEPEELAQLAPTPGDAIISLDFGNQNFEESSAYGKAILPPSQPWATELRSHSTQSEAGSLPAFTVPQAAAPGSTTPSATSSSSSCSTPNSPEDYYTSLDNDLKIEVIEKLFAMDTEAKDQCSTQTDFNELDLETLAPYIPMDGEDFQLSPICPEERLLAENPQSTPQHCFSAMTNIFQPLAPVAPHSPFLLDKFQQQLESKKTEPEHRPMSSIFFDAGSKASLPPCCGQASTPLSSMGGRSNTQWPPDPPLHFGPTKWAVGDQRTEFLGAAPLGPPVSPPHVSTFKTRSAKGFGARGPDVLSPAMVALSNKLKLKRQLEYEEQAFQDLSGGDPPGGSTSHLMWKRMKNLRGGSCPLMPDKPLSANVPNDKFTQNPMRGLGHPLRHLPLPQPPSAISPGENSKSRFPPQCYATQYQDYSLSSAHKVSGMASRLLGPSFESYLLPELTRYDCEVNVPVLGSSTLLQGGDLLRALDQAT

## COc1cc([C@@H]2c3cc4c(cc3[C@@H](O[C@@H]3O[C@@H]5CO[C@@H](C)O[C@H]5[C@H](O)[C@H]3O)[C@H]3COC(=O)[C@H]23)OCO4)cc(OC)c1O [Etoposide, (5S,5aR,8aR,9R)-5-[[(2R,4aR,6R,7R,8R,8aS)-7,8-dihydroxy-2-methyl-4,4a,6,7,8,8a-hexahydropyrano[3,2-d][1,3]dioxin-6-yl]oxy]-9-(4-hydroxy-3,5-dimethoxyphenyl)-5a,6,8a,9-tetrahydro-5H-[2]benzofuro[6,5-f][1,3]benzodioxol-8-one]
  inhibition at 1.25 µM: 65 to 77%

Source: patent US20230310478A1, “METHODS AND COMPOSITIONS FOR THE TREATMENT OF PULMONARY HYPERTENSION AND CANCER” (Ann and Robert H. Lurie Children's Hospital of Chicago, priority 2020, published 2023)
